Measurements: ChEMBL document CHEMBL3877245 (Eur J Med Chem, 2016)

Species: Rattus norvegicus
Assay: Selectivity ratio of Ki for rat alpha3beta4 nAChR to Ki for rat alpha4beta2 nAChR
For `COCC[C@@H]1C[C@H]1c1cncc(N2CCCNCC2)c1`, the Ratio Ki was > 10000. With `COCC[C@H]1C[C@@H]1c1cncc(N2CCCN(C)CC2)c1` the Ratio Ki was > 10000. For `COCC[C@H]1C[C@@H]1c1cncc(N2CCCNCC2)c1`, the Ratio Ki was > 10000.
